# Reference: patent US20040092531A1
# Tested on: neuropathic pain (allodynia against cold) in male Sprague-Dawley rats
# Test: Bennett test on rats (cold allodynia on 4° C. metal plate)
# Conditions: intravenous, FIG. 1
structure (smiles),measurement,setting,value
CNC1(c2ccccc2Cl)CCCCC1=O (centres unmarked),"analgesic effect 1440 minutes, i.e. 24 hours after administration",ketamine 4.64 mg/kg and/or fentanyl 0.01 mg/kg,no longer exhibit any analgesic effect
same,analgesic effect about 15 minutes after administration,"ketamine 4.64 mg/kg, fentanyl 0.01 mg/kg",good analgesic effect
